Data published in article PMC10265101.

Molecular target: recombinant HLA-G (TP305216, OriGene) (human) (UniProt P17693)
Assay: ELISA

IC50: 37.8 nM
Substance: HLA-G mAb 87G
